Values of other authors as cited in publication PMC7939532 (Oncotarget, 2021).

Amino acid sequences for entries named in this document (tags omitted).
UniProt Q92847, whole entry, species assumed: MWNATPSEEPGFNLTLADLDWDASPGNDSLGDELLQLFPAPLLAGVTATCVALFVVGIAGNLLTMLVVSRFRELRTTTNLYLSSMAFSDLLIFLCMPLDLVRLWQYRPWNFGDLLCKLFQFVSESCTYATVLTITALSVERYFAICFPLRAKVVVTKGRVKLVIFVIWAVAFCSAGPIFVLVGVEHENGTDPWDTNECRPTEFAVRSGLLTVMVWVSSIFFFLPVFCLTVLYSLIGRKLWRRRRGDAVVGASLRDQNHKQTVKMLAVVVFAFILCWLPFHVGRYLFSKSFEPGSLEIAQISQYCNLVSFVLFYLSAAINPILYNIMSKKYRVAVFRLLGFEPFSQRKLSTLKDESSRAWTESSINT

Biological target: Ghrelin receptor (Homo sapiens, UniProt Q92847)
Design: expressed in transfected cells; host or cells: COS-7
Conditions: first inverse agonist chelate, previously developed; cited from earlier work

Q: Which EC50 does the source give for “[^natGa]Ga-NODAGA-KwFwLL-NH2 (KWFWLL) [compound 1, first inverse agonist chelate, earlier work of the group; ^68Ga form in b7]” here?
A: The EC50 was 624 nM.
